Measurements published in patent publication US20120149631A1 (priority 2009, published 2012).
Like-named read-outs stand apart in the source and are kept apart here.

Columns and labels:
[1] = system: A. actinomycetemcomitans Y4; details: 24 h
[2] = system: K12 E. coli (ATCC #25404); details: read-out: EC50 uM, 3 h incubation, CFU enumeration
horse erythrocytes = details: red cells of horse, 1 h

## CC[C@H](C)[C@H](NC(=O)[C@@H](NC(=O)[C@H](CCCCN)NC(=O)[C@@H]1CCCN1C(=O)[C@H](CCCCN)NC(=O)[C@H](CCCCN)NC(=O)[C@H](Cc1ccccc1)NC(=O)[C@H](Cc1ccccc1)NC(=O)[C@H](CCCCN)NC(=O)[C@H](CCCCN)NC(=O)[C@H](C)NC(=O)[C@H](CCCNC(=N)N)NC(=O)[C@H](CCCCN)NC(=O)[C@H](CCCCN)NC(=O)[C@@H](NC(=O)[C@H](CO)NC(=O)[C@H](CC(N)=O)NC(=O)[C@H](CCCCN)NC(=O)[C@H](CC(C)C)NC(=O)[C@H](CCCCN)NC(=O)[C@H](CCCCN)NC(=O)[C@H](Cc1ccccc1)NC(=O)[C@H](Cc1ccccc1)NC(=O)[C@H](CCCCN)NC(=O)[C@H](CCCCN)NC(=O)[C@H](Cc1ccccc1)NC(=O)[C@H](CCCNC(=N)N)NC(=O)[C@@H](N)CCCCN)C(C)C)C(C)C)C(=O)NCC(=O)N[C@H](C(=O)N[C@H](C(=O)N[C@@H](Cc1ccccc1)C(=O)N1CCC[C@H]1C(=O)N[C@@H](Cc1ccccc1)C(=O)O)[C@@H](C)O)C(C)C [NA-CATH]
[1]
  EC50: 396 nM
[2]
  EC50: 0.046 µM

## C[C@H](NC(=O)[C@H](CCCNC(=N)N)NC(=O)[C@@H](N)CCCCN)C(=O)N[C@@H](CCCCN)C(=O)N[C@@H](CCCCN)C(=O)N[C@@H](Cc1ccccc1)C(=O)N[C@@H](Cc1ccccc1)C(=O)N[C@@H](CCCCN)C(=O)N[C@@H](CCCCN)C(=O)N1CCC[C@H]1C(=O)N[C@@H](CCCCN)C(N)=O [ATRA-2]
[1]
  EC50: 113000 nM
Horse erythrocytes; 100 ug/ml
  hemolysis: 0.2%
Horse erythrocytes; 1000 ug/ml
  hemolysis: 2.6%
[2]
  EC50: 15.8 µM

## CC(C)C[C@H](NC(=O)[C@H](CCCCN)NC(=O)[C@H](CCCCN)NC(=O)[C@H](Cc1ccccc1)NC(=O)[C@H](Cc1ccccc1)NC(=O)[C@H](CCCCN)NC(=O)[C@H](CCCCN)NC(=O)[C@H](Cc1ccccc1)NC(=O)[C@H](CCCNC(=N)N)NC(=O)[C@@H](N)CCCCN)C(=O)N[C@@H](CCCCN)C(N)=O [ATRA-1]
[1]
  EC50: 619 nM
[2]
  EC50: 0.589 µM
